What was measured:
[1] = test system: HLM; experiment: TATP hydroxylation (TATP-OH formation) in HLM with chemical inhibitors or heat; details: inhibitor preincubated in HLM for 30 min (1-ABT 1 mM, MMI 500 µM, TIC 100 µM), substrate TATP 100 µM, no inhibitor = 100%
[2] = test system: FMO; experiment: Benzydamine N-oxidation (FMO probe) in HLM with chemical inhibitors or heat; details: HLM preheated for 5 min at 45 ℃; 37 ℃ = 100%
[3] = target: CYP2B6 (Homo sapiens, UniProt P20813); details: HLM preheated for 5 min at 45 ℃; 37 ℃ = 100%
[4] = Urine analysis of laboratory workers exposed to TATP vapor; details: three volunteers

Sequences of proteins named here, by UniProt entry; tags and fusion partners are left off. A change or cut given only in a name is not applied to a line headed by its entry.
UniProt P20813: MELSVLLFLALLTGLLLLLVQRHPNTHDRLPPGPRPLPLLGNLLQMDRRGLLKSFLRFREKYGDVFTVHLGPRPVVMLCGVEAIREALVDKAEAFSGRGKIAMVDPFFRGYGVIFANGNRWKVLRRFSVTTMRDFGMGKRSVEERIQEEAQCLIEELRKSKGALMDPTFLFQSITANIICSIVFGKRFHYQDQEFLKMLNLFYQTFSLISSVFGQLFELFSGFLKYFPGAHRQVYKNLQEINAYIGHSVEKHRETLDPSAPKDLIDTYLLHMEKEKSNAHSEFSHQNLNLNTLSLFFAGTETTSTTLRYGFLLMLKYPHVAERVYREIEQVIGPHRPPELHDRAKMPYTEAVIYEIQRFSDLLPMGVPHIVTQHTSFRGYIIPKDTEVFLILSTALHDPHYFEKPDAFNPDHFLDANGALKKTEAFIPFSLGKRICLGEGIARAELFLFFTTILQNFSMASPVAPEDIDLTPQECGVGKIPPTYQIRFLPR

Q: For `CC(NC(C)(C)C)C(=O)c1cccc(Cl)c1` (stereo not drawn), which “TATP-OH formation in 15 min, percent found” value [1] is on record?
A: 125 ± 21%

Q: What about the “TATP-OH formation in 15 min, percent found” value ([1]; listed as bupropion) of the same molecule?
A: 125%

Q: For benzydamine N-oxide, which “BZD-NO formation in 15 min, percent found” value [2] is on record?
A: 44 ± 2%

Q: For hydroxybupropion, which “BUP-OH formation in 15 min, percent found” value [3] is on record?
A: 99 ± 2%

Q: For `CC1(C)OOC(C)(C)OOC(C)(COC2OC(C(=O)O)C(O)C(O)C2O)OO1` (stereo not drawn), which “Volunteers still showing the metabolite in urine collected the next day” value [4] is on record?
A: Two out of the three volunteers

Q: Which “TATP-OH formation in 15 min, percent found” value [1] does the source give for `Nn1nnc2ccccc21` here?
A: 3.6 ± 0.7%

Q: And the “TATP-OH formation in 15 min, percent found” value ([1]; listed as 1-aminobenzotriazole)?
A: 3.6%

Q: For `Clc1ccccc1CN1CCc2sccc2C1`, which “TATP-OH formation in 15 min, percent found” value [1] is on record?
A: 4.8 ± 0.7%

Q: With `Cn1cc[nH]c1=S` as the molecule, how does the “TATP-OH formation in 15 min, percent found” value [1] read?
A: 34 ± 2%

From paper PMC10615923
